Like-named read-outs stand apart in the source and are kept apart here.

For this data set the following is noted: human, in vivo.

For the molecule `O=C(CCCCCCC(=O)Nc1ccccc1)NO` [Vorinostat], the Cl/F was 143 L/h. The molecule further displayed a Cl/F (200 mg) of 331 L/h.

(Values after PMC6982547 (Leukemia & lymphoma, 2019).)
